Results from PubChem BioAssay (EPA / NIEHS).
Only a part is listed here, and it is no random draw. Calls of active or inactive are those of the source. The calls were made as follows: active = hit-call score of the fitted dose curve at least 0.9, where 1 is the maximum; inactive = score below 0.9.

Amino acid sequences for entries named in this document (tags omitted).
UniProt Q16665, whole entry, looked up: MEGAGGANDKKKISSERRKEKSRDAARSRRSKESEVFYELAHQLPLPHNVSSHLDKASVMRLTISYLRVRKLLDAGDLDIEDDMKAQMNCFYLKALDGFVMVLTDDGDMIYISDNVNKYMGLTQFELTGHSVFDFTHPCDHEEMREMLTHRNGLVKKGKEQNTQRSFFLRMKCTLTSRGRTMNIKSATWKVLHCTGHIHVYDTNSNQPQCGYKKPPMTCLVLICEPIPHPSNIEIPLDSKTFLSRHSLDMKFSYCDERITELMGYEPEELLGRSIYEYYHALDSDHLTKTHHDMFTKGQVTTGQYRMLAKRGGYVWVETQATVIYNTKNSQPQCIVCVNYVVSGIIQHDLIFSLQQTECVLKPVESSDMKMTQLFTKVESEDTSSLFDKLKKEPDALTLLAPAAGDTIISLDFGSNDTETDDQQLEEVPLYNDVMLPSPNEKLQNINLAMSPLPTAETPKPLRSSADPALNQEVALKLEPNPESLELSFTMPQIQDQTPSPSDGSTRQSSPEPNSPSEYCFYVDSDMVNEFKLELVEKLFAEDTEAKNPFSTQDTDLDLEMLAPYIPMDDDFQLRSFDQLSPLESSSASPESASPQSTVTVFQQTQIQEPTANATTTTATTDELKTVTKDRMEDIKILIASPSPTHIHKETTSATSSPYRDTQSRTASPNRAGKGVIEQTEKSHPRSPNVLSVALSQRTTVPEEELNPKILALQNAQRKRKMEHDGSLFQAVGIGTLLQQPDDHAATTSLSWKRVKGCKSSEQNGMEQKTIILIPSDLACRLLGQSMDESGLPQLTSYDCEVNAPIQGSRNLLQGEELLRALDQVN

What follows are compounds tested on Glutamate-cysteine ligase regulatory (GCLM), GCLM (gene 2730) (assay: LTEA_HepaRG_GCLM: Life Technologies and Expression Analysis (LTEA) Assay for Glutamate-cysteine ligase regulatory (GCLM) using HepaRG (AID 2283500)). Conditions: actives raise or lower the signal; mRNA level, 48 h.
Method in brief: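 Human liver HepaRG cultures receive test chemicals for 48 hours at up to 100 uM in 0.5% DMSO. GCLM expression is measured by qRT-PCR and analysed for increases or decreases against vehicle.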

Row | SMILES | AC50 | outcome
1 | O=C1C2CC=CCC2C(=O)N1SC(Cl)(Cl)C(Cl)Cl (stereo unspecified) | active: 0.139 µM | –
2 | CN(C(=O)Cc1cccc2occc12)[C@H]1CC[C@@]2(CCCO2)C[C@@H]1N1CCCC1 | – | inactive
3 | CC(C)OP(=S)(OC(C)C)SCCNS(=O)(=O)c1ccccc1 | – | inactive
4 | Cc1cc([N+](=O)[O-])cc([N+](=O)[O-])c1O | active: 89.6 µM | –

What follows are compounds tested on Glutathione S-transferase M3 (GSTM3), GSTM3 (gene 2947) (assay: LTEA_HepaRG_GSTM3: Life Technologies and Expression Analysis (LTEA) Assay for Glutathione S-transferase M3 (GSTM3) using HepaRG (AID 2283501)). Conditions: actives raise or lower the signal; mRNA level, 48 h.
Method in brief: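 GSTM3 transcript levels came from Fluidigm TaqMan qRT-PCR normalized to three housekeeping genes, fitted in both directions against DMSO. HepaRG cultures received chemicals for 48 h in serum-free induction medium (0.5% DMSO), 8 half-log concentrations up to 100 uM, duplicate.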

Row | SMILES | outcome | AC50
5 | O=C1C2CC=CCC2C(=O)N1SC(Cl)(Cl)C(Cl)Cl (stereo unspecified) | inactive | –
6 | CN(C(=O)Cc1cccc2occc12)[C@H]1CC[C@@]2(CCCO2)C[C@@H]1N1CCCC1 | inactive | –
7 | CC(C)OP(=S)(OC(C)C)SCCNS(=O)(=O)c1ccccc1 | inactive | –
8 | Cc1cc([N+](=O)[O-])cc([N+](=O)[O-])c1O | – | active: 4.38 µM

Each compound was assayed on Heat shock 70 kDa protein 1 (HSPA1A), gene 3303 (assay: LTEA_HepaRG_HSPA1A: Life Technologies and Expression Analysis (LTEA) Assay for Heat shock 70 kDa protein 1 (HSPA1A) using HepaRG (AID 2283502)). Conditions: actives raise or lower the signal; mRNA level, 48 h.
Method: (§1) LTEA_HepaRG is a cell based, multiplexed-readout assay that uses HepaRG, a human liver cell line, with measurements taken at 48 hours after chemical dosing on a 96-well plate.LTEA_HepaRG_HSPA1A is one of 102 assay component(s) measured in the LTEA HepaRG cell culture assay. It is a marker of Oxidative Stress.Data from the assay component LTEA_HepaRG_HSPA1A was analyzed into 1 endpoint. This assay endpoint, LTEA_HepaRG_HSPA1A, was analyzed with bidirectional fitting relative to DMSO as the negative control and baseline of activity. Using a type of inducible reporter, measures of mRNA induction for gain or loss-of-signal activity can be used to understand regulation of transcription factor activity. To generalize the intended target to other relatable targets, this assay endpoint is annotated to the dna binding intended target family, where the subfamily is heat shock protein.
(§2) A total of 1060 chemcials from the ToxCast library were tested in eight-point concentration-response experiments. Cell culture and cytotoxicity assays were conducted at Thermo Fisher Scientific's Custom Services facility (Madison, WI). A single lot of human HepaRG cells (Thermo Fisher Scientific, Frederick, MD) was used for the cell culture experiments. 96-well format collagen type I coated plates of human HepaRG cells were prepared using established methods. Briefly, cryopreserved HepaRG cells were thawed, plated at a density of approximately 100,000 cells/well in HepaRG Thaw, Plate, and General Purpose media (HPRG770, Thermo Fisher Scientific), and incubated for 48 hours. 0.5% DMSO was selected as vehicle control to balance the requisite need of DMSO in HepaRG cultures to maintain differentiation (for example, baseline metabolism, proportions of hepatocytes vs. cholangiocytes), while enabling further hepatic receptor pathway activation (for example, PXR and CAR) in response to chemical exposure. 48 hours after plating, the culture medium was replaced with HepaRG Serum-Free Incudtion Media. Cells were exposed to each test chemical in duplicate and maintained in CO2 incubators for another 48 hours. Chemical plates were thawed to room temperature and 200x concentrations of treatment groups were prepared. 8-point conentration-reponse curves were made with the highest exposure at 100 uM, followed by half-log dilutions, all in 0.5% DMSO. Each test plate contained variouse controls, induction positive controls (1mM phenobarbital), cytotoxicity positive controls (100 mM aflatoxin B1), vehicle controls (0.5% DMSO), and total lysis controls (0.5% DMSO). […] Fluidigm's 96.96 Dynamic ArrayTM (Fluidigm, Amsterdam, the Netherlands) technology was used for gene expression analyses by quantitative reverse transcription polymerase chain reaction (qRT-PCR, performed by Quintiles/Expression Analysis, Durham, NC)89. […]

Row | SMILES | outcome | AC50
9 | O=C1C2CC=CCC2C(=O)N1SC(Cl)(Cl)C(Cl)Cl (stereo unspecified) | inactive | –
10 | CN(C(=O)Cc1cccc2occc12)[C@H]1CC[C@@]2(CCCO2)C[C@@H]1N1CCCC1 | inactive | –
11 | CC(C)OP(=S)(OC(C)C)SCCNS(=O)(=O)c1ccccc1 | – | active: 67.5 µM
12 | Cc1cc([N+](=O)[O-])cc([N+](=O)[O-])c1O | – | active: 12.1 µM

These compounds were tested on Hypoxia-inducible factor 1-alpha (Homo sapiens) (UniProt Q16665) (assay: LTEA_HepaRG_HIF1A: Life Technologies and Expression Analysis (LTEA) Assay for Hypoxia-inducible factor 1 (HIF1A) Trancription factor using HepaRG (AID 2283503)). Conditions: actives raise or lower the signal; mRNA level, 48 h.
Method: as §1, with “plate.LTEA_HepaRG_HIF1A” for “plate.LTEA_HepaRG_HSPA1A”, “Cell proliferation, survival, death.Data” for “Oxidative Stress.Data”, “LTEA_HepaRG_HIF1A” for “LTEA_HepaRG_HSPA1A”, “LTEA_HepaRG_HIF1A,” for “LTEA_HepaRG_HSPA1A,”, “basic helix-loop-helix” for “heat shock”
as §2, with “DMSO.” for “DMSO. Each test plate contained variouse controls, induction positive controls (1mM phenobarbital), cytotoxicity positive controls (100 mM aflatoxin B1), vehicle controls (0.5% DMSO), and total lysis controls (0.5% DMSO).”

Row | SMILES | outcome | AC50
13 | O=C1C2CC=CCC2C(=O)N1SC(Cl)(Cl)C(Cl)Cl (stereo unspecified) | inactive | –
14 | CN(C(=O)Cc1cccc2occc12)[C@H]1CC[C@@]2(CCCO2)C[C@@H]1N1CCCC1 | inactive | –
15 | CC(C)OP(=S)(OC(C)C)SCCNS(=O)(=O)c1ccccc1 | inactive | –
16 | Cc1cc([N+](=O)[O-])cc([N+](=O)[O-])c1O | – | active: 10.5 µM

The compounds below were run on 3-Hydroxy-3-Methylglutaryl-CoA Synthase 2 (HMGCS2), HMGCS2 (gene 3158) (assay: LTEA_HepaRG_HMGCS2: Life Technologies and Expression Analysis (LTEA) Assay for 3-Hydroxy-3-Methylglutaryl-CoA Synthase 2 (HMGCS2) using HepaRG (AID 2283504)). Conditions: actives raise or lower the signal; mRNA level, 48 h.
Method in brief: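 Readout is HMGCS2 transcript by qRT-PCR, housekeeping-normalised (ACTB/GAPDH/POLR2A) and fitted bidirectionally against 0.5% DMSO. Differentiated HepaRG cells received chemicals 48 h, duplicate wells, eight half-log concentrations topping at 100 uM.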

Row | SMILES | outcome | AC50
17 | O=C1C2CC=CCC2C(=O)N1SC(Cl)(Cl)C(Cl)Cl (stereo unspecified) | inactive | –
18 | CN(C(=O)Cc1cccc2occc12)[C@H]1CC[C@@]2(CCCO2)C[C@@H]1N1CCCC1 | inactive | –
19 | Cc1cc([N+](=O)[O-])cc([N+](=O)[O-])c1O | – | active: 10.2 µM

What follows are compounds tested on HGF (gene 3082) (assay: LTEA_HepaRG_HGF: Life Technologies and Expression Analysis (LTEA) Assay for Hepatocyte Growth Facto (HGF) using HepaRG (AID 2283505)). Conditions: actives raise or lower the signal; mRNA level, 48 h.
Method in brief: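 HGF transcript was quantified by TaqMan qRT-PCR against three housekeeping genes after 48 h treatment of HepaRG cells. Exposure ran in duplicate over eight half-log steps topping at 100 uM in 0.5% DMSO vehicle.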

Row | SMILES | outcome | AC50
20 | O=C1C2CC=CCC2C(=O)N1SC(Cl)(Cl)C(Cl)Cl (stereo unspecified) | inactive | –
21 | CN(C(=O)Cc1cccc2occc12)[C@H]1CC[C@@]2(CCCO2)C[C@@H]1N1CCCC1 | inactive | –
22 | CC(C)OP(=S)(OC(C)C)SCCNS(=O)(=O)c1ccccc1 | inactive | –
23 | Cc1cc([N+](=O)[O-])cc([N+](=O)[O-])c1O | – | active: 13 µM

Each compound was assayed on Insulin Like Growth Factor 1 (IGF1), IGF1 (gene 3479) (assay: LTEA_HepaRG_IGF1: Life Technologies and Expression Analysis (LTEA) Assay for Insulin Like Growth Factor 1 (IGF1) using HepaRG (AID 2283506)). Conditions: actives raise or lower the signal; mRNA level, 48 h.
Method in brief: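 Using human HepaRG liver cells, IGF1 transcript induction or suppression is measured 48 h after dosing across eight concentrations capped at 100 uM. Values derive from bidirectional concentration-response fitting with DMSO as baseline.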

Row | SMILES | AC50 | outcome
24 | O=C1C2CC=CCC2C(=O)N1SC(Cl)(Cl)C(Cl)Cl (stereo unspecified) | active: 29.9 µM | –
25 | CN(C(=O)Cc1cccc2occc12)[C@H]1CC[C@@]2(CCCO2)C[C@@H]1N1CCCC1 | – | inactive
26 | CC(C)OP(=S)(OC(C)C)SCCNS(=O)(=O)c1ccccc1 | active: 24.2 µM | –

The compounds below were run on Intercellular Adhesion Molecule 1 (ICAM1), ICAM1 (gene 3383) (assay: LTEA_HepaRG_ICAM1: Life Technologies and Expression Analysis (LTEA) Assay for Intercellular Adhesion Molecule 1 (ICAM1) using HepaRG (AID 2283507)). Conditions: actives raise or lower the signal; mRNA level, 48 h.
Method in brief: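 ICAM1 transcript levels measured by qRT-PCR, normalized to three housekeeping genes (ACTB, GAPDH, POLR2A), after 48 h chemical exposure of HepaRG cells. Duplicate eight-point half-log series from 100 uM in 0.5% DMSO; gain or loss fitted against vehicle.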

Row | SMILES | outcome | AC50
27 | O=C1C2CC=CCC2C(=O)N1SC(Cl)(Cl)C(Cl)Cl (stereo unspecified) | inactive | –
28 | CN(C(=O)Cc1cccc2occc12)[C@H]1CC[C@@]2(CCCO2)C[C@@H]1N1CCCC1 | inactive | –
29 | CC(C)OP(=S)(OC(C)C)SCCNS(=O)(=O)c1ccccc1 | – | active: 94 µM
30 | Cc1cc([N+](=O)[O-])cc([N+](=O)[O-])c1O | – | active: 30.4 µM

These compounds were tested on Insulin-like growth factor-binding protein 1 (IGFBP1), IGFBP1 (gene 3484) (assay: LTEA_HepaRG_IGFBP1: Life Technologies and Expression Analysis (LTEA) Assay for Insulin-like growth factor-binding protein 1 (IGFBP1) using HepaRG (AID 2283508)). Conditions: actives raise or lower the signal; mRNA level, 48 h.
Method in brief: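 Read-out is qRT-PCR transcript level normalized to three housekeeping genes, fitted in both directions against 0.5% DMSO. Differentiated HepaRG cells received eight half-log concentrations (top 100 uM) in duplicate for 48 h in serum-free induction medium.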

Row | SMILES | outcome | AC50
31 | O=C1C2CC=CCC2C(=O)N1SC(Cl)(Cl)C(Cl)Cl (stereo unspecified) | inactive | –
32 | CN(C(=O)Cc1cccc2occc12)[C@H]1CC[C@@]2(CCCO2)C[C@@H]1N1CCCC1 | inactive | –
33 | CC(C)OP(=S)(OC(C)C)SCCNS(=O)(=O)c1ccccc1 | – | active: 80.9 µM

Each compound was assayed on Interleukin 6 (IL6), IL6 (gene 3569) (assay: LTEA_HepaRG_IL6: Life Technologies and Expression Analysis (LTEA) Assay for Interleukin 6 (IL6) using HepaRG (AID 2283509)). Conditions: actives raise or lower the signal; mRNA level, 48 h.
Method: as §1, with “plate.LTEA_HepaRG_IL6” for “plate.LTEA_HepaRG_HSPA1A”, “Inflammation.Data” for “Oxidative Stress.Data”, “LTEA_HepaRG_IL6” for “LTEA_HepaRG_HSPA1A”, “LTEA_HepaRG_IL6,” for “LTEA_HepaRG_HSPA1A,”, “cytokine” for “dna binding”, “interleukins.” for “heat shock protein.”
A total of 1060 chemcials from the ToxCast library were tested in eight-point concentration-response experiments. Cell culture and cytotoxicity assays were conducted at Thermo Fisher Scientific's Custom Services facility (Madison, WI). A single lot of human HepaRG cells (Thermo Fisher Scientific, Frederick, MD) was used for the cell culture experiments. 96-well format collagen type I coated plates of human HepaRG cells were prepared using established methods. Briefly, cryopreserved HepaRG cells were thawed, plated at a density of approximately 100,000 cells/well in HepaRG Thaw, Plate, and General Purpose media (HPRG770, Thermo Fisher Scientific), and incubated for 48 hours. […] Fluidigm's 96.96 Dynamic ArrayTM (Fluidigm, Amsterdam, the Netherlands) technology was used for gene expression analyses by quantitative reverse transcription polymerase chain reaction (qRT-PCR, performed by Quintiles/Expression Analysis, Durham, NC)89. […]

Row | SMILES | outcome | AC50
34 | O=C1C2CC=CCC2C(=O)N1SC(Cl)(Cl)C(Cl)Cl (stereo unspecified) | inactive | –
35 | CN(C(=O)Cc1cccc2occc12)[C@H]1CC[C@@]2(CCCO2)C[C@@H]1N1CCCC1 | inactive | –
36 | CC(C)OP(=S)(OC(C)C)SCCNS(=O)(=O)c1ccccc1 | – | active: 94 µM
